## Binding of CDR-mutated scFvs to a peptide of the spike HR2 region

Reference: Engelhart et al. 2022, doi:10.1038/s41597-022-01779-4. File: FLAb, binding data.

The target is the same throughout: PDVDLGDISGINAS, from the HR2 region of SARS-CoV-2 spike.

Parent scFv Ab-14: VH joined to VL by the linker GGGGSGGGGSGGGGS. Changes lie in the heavy chain CDRs alone.
VH: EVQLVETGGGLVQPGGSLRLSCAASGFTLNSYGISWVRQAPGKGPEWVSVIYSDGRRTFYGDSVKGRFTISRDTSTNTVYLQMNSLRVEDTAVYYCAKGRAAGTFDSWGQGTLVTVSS
VL: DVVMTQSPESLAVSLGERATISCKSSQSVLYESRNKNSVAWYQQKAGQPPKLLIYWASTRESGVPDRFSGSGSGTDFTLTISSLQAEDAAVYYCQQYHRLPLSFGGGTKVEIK

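The starting antibody came from a phage panning campaign against this peptide. In library AAYL49, one, two or three CDR residues were substituted; doubles and triples were drawn at random. In AlphaSeq, yeast of one mating type display the scFv and yeast of the other type display the target. Mating (16 h, 30 °C) was followed by selection of diploids and sequencing of their barcodes. A regression on co-assayed BCL2-family reference pairs converts the normalised counts of each replicate to an apparent Kd. The assay was run in three technical replicates.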

Variants are written as CDR1, CDR2 and CDR3 of the heavy chain (limits as in the source). Parent: GFTLNSYGIS, VIYSDGRRTFYGDSVK, GRAAGTFDS.
Scale: log10 of Kd in nM, estimated from mating counts; low values are strong binders.
"nd" means that the variant was in the library but no mating with the target was seen in that replicate; the authors take this as a sign of poor binding, and no number exists.
Empty control strains, which show no peptide, gave a signal in 15% of pairings with library AAYL49; the median was 4.06 and 95% of these signals were weaker than 2.83. No background was subtracted. The control count says in how many pairings with the empty strains this scFv gave a signal, with their mean in brackets.

{"CDR-H1": "GFTANSYGIS", "CDR-H2": "VIYSDGRNTFYGDSVK", "CDR-H3": "FRAAGTFDS", "replicates, log10 nM": "nd / nd / nd", "empty controls": "1 of 9 (3.38)"}
{"CDR-H1": "GFTLNSYTIS", "CDR-H2": "VIYSDGRRTFYGDSVK", "CDR-H3": "GRAAGTFDS", "replicates, log10 nM": "4.55 / nd / nd", "empty controls": "1 of 9 (3.03)"}
{"CDR-H1": "EFTLDSYGIS", "CDR-H2": "VIYSDGRRTFYGDSAK", "CDR-H3": "GRAAGTFDS", "replicates, log10 nM": "1.88 / 2.40 / 2.05", "empty controls": "0 of 9"}
{"CDR-H1": "CFTLNSYGIS", "CDR-H2": "VIYSDGRRTFYGDSVM", "CDR-H3": "GRAAGTFCS", "replicates, log10 nM": "2.08 / 1.79 / 2.00", "empty controls": "1 of 9 (3.61)"}
{"CDR-H1": "GFTLNSYDIS", "CDR-H2": "VIYSDGRRTFYGDSVK", "CDR-H3": "GRVTGTFDS", "replicates, log10 nM": "nd / nd / nd", "empty controls": "2 of 9 (5.17)"}
{"CDR-H1": "GFTVNSYGIS", "CDR-H2": "VIYSDGRRTFYGDSVN", "CDR-H3": "GVAAGTFDS", "replicates, log10 nM": "2.21 / 2.42 / 2.42", "empty controls": "0 of 9"}
{"CDR-H1": "GFTLNNYGIS", "CDR-H2": "VIYSDGRRTFYGDSVK", "CDR-H3": "GRADGTFVS", "replicates, log10 nM": "nd / 5.36 / 4.02", "empty controls": "5 of 9 (4.09)"}
{"CDR-H1": "MFTLNSYGGS", "CDR-H2": "VIYSIGRRTFYGDSVK", "CDR-H3": "GRAAGTFDS", "replicates, log10 nM": "nd / nd / nd", "empty controls": "0 of 9"}
{"CDR-H1": "GFTLNSYGIS", "CDR-H2": "VIYSDGRHTFYQDSVK", "CDR-H3": "GRAAGGFDS", "replicates, log10 nM": "nd / nd / nd", "empty controls": "1 of 9 (2.90)"}
{"CDR-H1": "GFPLNSYGIS", "CDR-H2": "VIYSDGRATFYGDSEK", "CDR-H3": "GRAAGTFDS", "replicates, log10 nM": "nd / nd / nd", "empty controls": "0 of 9"}
{"CDR-H1": "WFTLNSYGIS", "CDR-H2": "VIYSDGRRTIYGDNVK", "CDR-H3": "GRAAGTFDS", "replicates, log10 nM": "nd / nd / nd", "empty controls": "2 of 9 (3.83)"}
{"CDR-H1": "GFTLNSYGIS", "CDR-H2": "VIYHDGRETFYGDSVK", "CDR-H3": "GRAAGTFDH", "replicates, log10 nM": "nd / nd / nd", "empty controls": "0 of 9"}
{"CDR-H1": "RFTLNSKGIS", "CDR-H2": "VIYSVGRRTFYGDSVK", "CDR-H3": "GRAAGTFDS", "replicates, log10 nM": "nd / nd / nd", "empty controls": "0 of 9"}
{"CDR-H1": "GFTLNSYGIS", "CDR-H2": "VIVSEGRRTFYGDSVK", "CDR-H3": "GRAAGTMDS", "replicates, log10 nM": "nd / nd / nd", "empty controls": "0 of 9"}
{"CDR-H1": "GFTLNVYGIS", "CDR-H2": "VIYSDGNRTFYGDSVK", "CDR-H3": "GRARGTFDS", "replicates, log10 nM": "nd / nd / nd", "empty controls": "2 of 9 (4.00)"}
{"CDR-H1": "GFTLPSYGPS", "CDR-H2": "VIYTDGRRTFYGDSVK", "CDR-H3": "GRAAGTFDS", "replicates, log10 nM": "nd / nd / nd", "empty controls": "2 of 9 (2.86)"}
{"CDR-H1": "GFTLNSYGIH", "CDR-H2": "VIYSDGRRTFYGDSKF", "CDR-H3": "GRAAGTFDS", "replicates, log10 nM": "nd / 3.01 / nd", "empty controls": "0 of 9"}
{"CDR-H1": "GFTLNSHGIS", "CDR-H2": "VCYQDGRRTFYGDSVK", "CDR-H3": "GRAAGTFDS", "replicates, log10 nM": "nd / nd / nd", "empty controls": "1 of 9 (3.01)"}
{"CDR-H1": "GFTLNSYHIS", "CDR-H2": "VIYSDGRRTFYGDSVK", "CDR-H3": "GRANQTFDS", "replicates, log10 nM": "nd / nd / 4.89", "empty controls": "1 of 9 (4.53)"}
{"CDR-H1": "GFTLNSYGIS", "CDR-H2": "VIYADWRRTFYQDSVK", "CDR-H3": "GRAAGTFDS", "replicates, log10 nM": "2.91 / nd / nd", "empty controls": "0 of 9"}
{"CDR-H1": "GFTLNSYGIA", "CDR-H2": "VIYSDGRRTFYGDSVK", "CDR-H3": "GLAAGTFQS", "replicates, log10 nM": "nd / 4.22 / nd", "empty controls": "1 of 9 (4.11)"}
{"CDR-H1": "GFTLNSYGIS", "CDR-H2": "VIYSDGRRTFYGGSVK", "CDR-H3": "GREAGTFDS", "replicates, log10 nM": "0.46 / 0.68 / 0.69", "empty controls": "1 of 9 (4.57)"}
{"CDR-H1": "GFTLHSPGIS", "CDR-H2": "VIYSDGRRTFYGDSVK", "CDR-H3": "GRAAHTFDS", "replicates, log10 nM": "nd / nd / nd", "empty controls": "0 of 9"}
{"CDR-H1": "GFTLNSYGIS", "CDR-H2": "SIYSTGRRTFYGDSVK", "CDR-H3": "GRAAGTKDS", "replicates, log10 nM": "4.29 / nd / 4.17", "empty controls": "2 of 9 (3.65)"}
{"CDR-H1": "GFTLNCYGIN", "CDR-H2": "DIYSDGRRTFYGDSVK", "CDR-H3": "GRAAGTFDS", "replicates, log10 nM": "nd / nd / nd", "empty controls": "1 of 9 (3.98)"}
{"CDR-H1": "GFPLNWYGFS", "CDR-H2": "VIYSDGRRTFYGDSVK", "CDR-H3": "GRAAGTFDS", "replicates, log10 nM": "nd / nd / nd", "empty controls": "2 of 9 (4.56)"}
{"CDR-H1": "GFTLNSYGIS", "CDR-H2": "VIYSDGVRTFYGDKVC", "CDR-H3": "GRAAGTFDS", "replicates, log10 nM": "1.80 / 2.25 / 1.97", "empty controls": "0 of 9"}
{"CDR-H1": "GFTLNSYGIS", "CDR-H2": "VIYSDGNRTFYGDSPK", "CDR-H3": "GRAAMTFDS", "replicates, log10 nM": "4.83 / 4.57 / nd", "empty controls": "5 of 9 (4.35)"}
{"CDR-H1": "GFPLNSYGIS", "CDR-H2": "VIYSRGRRTFYGDSVK", "CDR-H3": "GGAAGTFDS", "replicates, log10 nM": "nd / nd / nd", "empty controls": "2 of 9 (4.25)"}
{"CDR-H1": "GFTLHSYGIS", "CDR-H2": "VIGSDGRRTFYGDSVK", "CDR-H3": "GRARGTFDS", "replicates, log10 nM": "3.75 / nd / nd", "empty controls": "1 of 9 (4.70)"}
{"CDR-H1": "GFTLNNYGIS", "CDR-H2": "VIYSDGRRTYYGDSVK", "CDR-H3": "GRATGTFDS", "replicates, log10 nM": "0.46 / 0.55 / 0.47", "empty controls": "2 of 9 (4.23)"}
{"CDR-H1": "GFTLNSYGIS", "CDR-H2": "VIYSDGRRTQLGESVK", "CDR-H3": "GRAAGTFDS", "replicates, log10 nM": "4.90 / nd / nd", "empty controls": "0 of 9"}

The opening 2 entries, copied out:

{"CDR-H1": "GFTANSYGIS", "CDR-H2": "VIYSDGRNTFYGDSVK", "CDR-H3": "FRAAGTFDS", "replicates, log10 nM": "nd / nd / nd", "empty controls": "1 of 9 (3.38)"}
{"CDR-H1": "GFTLNSYTIS", "CDR-H2": "VIYSDGRRTFYGDSVK", "CDR-H3": "GRAAGTFDS", "replicates, log10 nM": "4.55 / nd / nd", "empty controls": "1 of 9 (3.03)"}